Laboratory results from PubChem BioAssay (EPA / NIEHS).
This is a selection; strong and weak results do not stand in their true shares. Records with an inconclusive call do not appear. The source made the active and inactive calls. Rule for the calls, unless noted: active = hit-call score of the fitted dose curve at least 0.9, where 1 is the maximum; inactive = score below 0.9.

Sequences of proteins named here, by UniProt entry; tags and fusion partners are left off.
UniProt Q14994, whole entry: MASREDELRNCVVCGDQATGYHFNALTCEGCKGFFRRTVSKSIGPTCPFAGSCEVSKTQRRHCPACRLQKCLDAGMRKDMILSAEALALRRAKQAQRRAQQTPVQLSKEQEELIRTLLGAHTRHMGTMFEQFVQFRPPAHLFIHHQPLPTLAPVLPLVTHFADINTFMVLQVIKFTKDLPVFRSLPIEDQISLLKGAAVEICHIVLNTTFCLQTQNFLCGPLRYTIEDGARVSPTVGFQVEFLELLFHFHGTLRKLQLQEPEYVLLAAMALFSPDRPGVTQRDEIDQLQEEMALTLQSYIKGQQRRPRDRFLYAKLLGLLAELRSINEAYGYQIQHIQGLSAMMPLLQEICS
UniProt P17861, whole entry: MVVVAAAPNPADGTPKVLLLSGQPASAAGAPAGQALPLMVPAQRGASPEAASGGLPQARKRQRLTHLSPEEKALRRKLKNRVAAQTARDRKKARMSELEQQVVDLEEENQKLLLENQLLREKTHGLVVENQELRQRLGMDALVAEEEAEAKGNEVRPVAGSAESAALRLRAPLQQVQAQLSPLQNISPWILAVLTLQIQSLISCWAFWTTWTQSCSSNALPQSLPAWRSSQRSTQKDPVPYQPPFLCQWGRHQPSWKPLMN
UniProt P10275, whole entry: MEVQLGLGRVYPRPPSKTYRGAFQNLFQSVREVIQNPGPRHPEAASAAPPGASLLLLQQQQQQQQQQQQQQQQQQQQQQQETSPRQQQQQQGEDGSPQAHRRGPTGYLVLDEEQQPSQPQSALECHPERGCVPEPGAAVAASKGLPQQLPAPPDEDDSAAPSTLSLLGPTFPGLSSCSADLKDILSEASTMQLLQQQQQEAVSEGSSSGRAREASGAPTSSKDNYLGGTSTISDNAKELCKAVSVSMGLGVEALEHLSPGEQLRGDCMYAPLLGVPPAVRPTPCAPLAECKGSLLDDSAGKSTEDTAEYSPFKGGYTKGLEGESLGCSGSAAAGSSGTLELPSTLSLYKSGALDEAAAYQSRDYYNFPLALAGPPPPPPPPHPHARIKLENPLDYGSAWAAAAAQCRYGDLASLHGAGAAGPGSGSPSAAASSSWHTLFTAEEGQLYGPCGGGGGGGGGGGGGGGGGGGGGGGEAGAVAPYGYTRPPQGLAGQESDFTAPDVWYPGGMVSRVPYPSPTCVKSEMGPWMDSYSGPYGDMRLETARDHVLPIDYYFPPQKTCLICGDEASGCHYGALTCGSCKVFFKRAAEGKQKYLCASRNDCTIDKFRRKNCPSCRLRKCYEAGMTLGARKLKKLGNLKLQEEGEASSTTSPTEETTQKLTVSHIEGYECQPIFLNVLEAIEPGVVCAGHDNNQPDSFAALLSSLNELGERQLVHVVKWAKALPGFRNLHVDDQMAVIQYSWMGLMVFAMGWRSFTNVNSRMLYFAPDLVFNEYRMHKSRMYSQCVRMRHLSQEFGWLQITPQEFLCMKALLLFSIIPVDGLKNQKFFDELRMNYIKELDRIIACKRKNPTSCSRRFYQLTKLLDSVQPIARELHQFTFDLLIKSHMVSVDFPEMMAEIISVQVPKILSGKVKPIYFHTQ
UniProt P11474, whole entry: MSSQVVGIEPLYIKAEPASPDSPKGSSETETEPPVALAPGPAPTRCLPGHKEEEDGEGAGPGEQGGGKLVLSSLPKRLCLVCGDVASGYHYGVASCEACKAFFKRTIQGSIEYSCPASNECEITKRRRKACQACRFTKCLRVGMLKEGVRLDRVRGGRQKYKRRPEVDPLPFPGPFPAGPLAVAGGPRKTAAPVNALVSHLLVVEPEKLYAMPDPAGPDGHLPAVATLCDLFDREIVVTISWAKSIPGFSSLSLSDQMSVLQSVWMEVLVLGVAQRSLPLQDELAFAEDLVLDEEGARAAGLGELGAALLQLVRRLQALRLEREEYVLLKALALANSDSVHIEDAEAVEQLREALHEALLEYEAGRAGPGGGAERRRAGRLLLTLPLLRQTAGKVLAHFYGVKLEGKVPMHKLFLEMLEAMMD
UniProt P03372, whole entry: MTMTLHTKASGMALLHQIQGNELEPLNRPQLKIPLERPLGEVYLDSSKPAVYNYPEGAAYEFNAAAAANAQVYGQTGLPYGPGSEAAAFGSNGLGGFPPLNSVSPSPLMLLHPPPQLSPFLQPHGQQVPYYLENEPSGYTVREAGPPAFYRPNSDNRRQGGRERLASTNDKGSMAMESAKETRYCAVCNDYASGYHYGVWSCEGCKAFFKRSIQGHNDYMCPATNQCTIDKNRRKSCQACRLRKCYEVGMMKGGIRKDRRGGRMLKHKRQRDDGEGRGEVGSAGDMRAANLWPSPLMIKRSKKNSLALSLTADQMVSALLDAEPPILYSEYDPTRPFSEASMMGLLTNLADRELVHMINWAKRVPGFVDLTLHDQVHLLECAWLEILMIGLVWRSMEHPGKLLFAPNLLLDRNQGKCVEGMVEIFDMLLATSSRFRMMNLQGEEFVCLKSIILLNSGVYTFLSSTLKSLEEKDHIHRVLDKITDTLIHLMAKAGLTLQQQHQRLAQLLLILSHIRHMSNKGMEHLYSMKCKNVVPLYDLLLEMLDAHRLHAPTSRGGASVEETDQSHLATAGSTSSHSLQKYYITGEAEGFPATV

What was measured:
[1] = ATG_TCF_b_cat_CIS: Attagene CIS-FACTORIAL HepG2 Assay for human T-Cell-Factor with beta-catenin (TCF/b-cat) (AID 2282965); settings: HepG2 TCF/beta-catenin cis-reporter transcription, actives raise or lower the signal
Outline: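 Cells of the HepG2 line carry transiently transfected reporter units whose promoters respond to endogenous factors. Twenty-four hours post-dosing, reporter mRNA induction is measured by fluorescent RT-PCR and capillary electrophoresis, with DMSO as baseline.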

[2] = ATG_TAL_CIS: Attagene CIS-FACTORIAL HepG2 Assay for human TAL Basal Promoter (AID 2282966); settings: HepG2 Attagene cis-factorial TAL promoter reporter; actives raise or lower the signal;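 note: background control endpoint measuring basal TAL promoter reporter mRNA not a specific factor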
Outline: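 HepG2 cells were transiently transfected with promoter-driven multiplexed reporter units and dosed for 24 h. Reporter mRNA was measured by RT-PCR with capillary electrophoresis fluorescence; bidirectional fits used DMSO as baseline, serving as a background control.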

[3] = ATG_TGFb_CIS: Attagene CIS-FACTORIAL HepG2 Assay for human Transforming Growth Factor (TGF) (AID 2282967); settings: HepG2 Attagene CIS TGFb reporter, mRNA transcription; actives raise or lower the signal
Outline: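 HepG2 cells transiently transfected with cis-promoter-driven multiple reporter units measure endogenous TF activity; reporter mRNA quantified at 24 h by RT-PCR, FAM labeling, HpaI digestion and capillary electrophoresis. Bidirectional fit vs DMSO.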

[4] = ATG_VDRE_CIS: Attagene CIS-FACTORIAL HepG2 Assay for human Vitamin D Receptor Element (VDRE) (AID 2282968); settings: HepG2 VDRE cis-reporter transcription, actives raise or lower the signal
Experimental: ATG_CIS is a cell-based, multiplexed-readout assay that uses HepG2, a human liver cell line, with measurements taken at 24 hours after chemical dosing in a 24-well plate.ATG_VDRE_CIS is one of 52 assay component(s) measured or calculated from the ATG_CIS assay. It is designed to make measurements of mRNA induction, a form of inducible reporter, as detected with fluorescence intensity signals by Reverse transcription polymerase chain reaction (RT-PCR) and Capillary electrophoresis technology.Data from the assay component ATG_VDRE_CIS was analyzed into 1 assay endpoint. This assay endpoint, ATG_VDRE_CIS, was analyzed with bidirectional fitting relative to DMSO as the negative control and baseline of activity. Using a type of inducible reporter, measures of mRNA for gain or loss-of-signal activity can be used to understand the reporter gene at the transcription factor-level as they relate to the gene VDR. Furthermore, this assay endpoint can be referred to as a primary readout, because this assay has produced multiple assay endpoints where this one serves a reporter gene function. To generalize the intended target to other relatable targets, this assay endpoint is annotated to the nuclear receptor intended target family, where the subfamily is non-steroidal.
Human liver HepG2 cells are transiently transfected with multiple reporter transcription units (MRTUs) in 6-well plates using FuGene 6 reagent (Roche; 3 ml FuGene/1 mg DNA). The MRTU constructs are regulated by a cis-regulating element (promoter). […] A major difference between the CIS and TRANS system is that in CIS activities of endogenous TFs are measured, whereas the TRANS assay evaluates changes in activities of exogenous, chimeric NR-Gal4 proteins. […] At the end of 24 hour incubation, total RNA was isolated using TriZol reagent (Invitrogen). The isolated RNA is then reverse-transcribed using oligo(dT) primer and Mo-MLV reverse transcriptase (Invitrogen) with DNAse I (Ambion) treatment for 30 min. The one-tenth of the produced cDNA was amplified by PCR using Taq DNA polymerase (Invitrogen) and two reporter sequence-specific primers. The PCR products were fluorescently labeled by primer extension with 6-arboxyfluorescein (6-FAM) 5'-labeled reporter sequence-specific primer (2 min at 95 C, 20 s at 68 C and 10 min at 72 C) and these products were digested with 5U of HpaI (New England Biolabs) for 2h at 37 C. The fragments were purified using Qiaquick PCR columns (Qiagen), analyzed on an ABI 3130xL genetic analyzer (Applied Biosystems) with peak positions identified by using a set of X-rhodamine (ROX)-labeled MapMarker1000 molecular weight standards (BioVentures). The raw capillary electrophoresis data was processed using Attagraph software (Attagene).

[5] = target: Nuclear receptor subfamily 1 group I member 3 (Homo sapiens) (UniProt Q14994); test: ATG_CAR_TRANS: Attagene TRANS-FACTORIAL HepG2 Assay for human Constitutive Androstane Receptor (CAR) (AID 2282969; active = hit-call score of the fitted dose curve at least 0.9, where 1 is the maximum;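 note: activators raise reporter mRNA above DMSO so AC50 marks induction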); settings: HepG2 Attagene TRANS-FACTORIAL CAR reporter
Experimental: ATG_TRANS is a cell-based, multiplexed-readout assay that uses HepG2, a human liver cell line, with measurements taken at 24 hours after chemical dosing in a 24-well plate.ATG_CAR_TRANS is one of 30 assay component(s) measured or calculated from the ATG_TRANS assay. It is designed to make measurements of mRNA induction, a form of inducible reporter, as detected with fluorescence intensity signals by Reverse transcription polymerase chain reaction (RT-PCR) and Capillary electrophoresis technology.Data from the assay component ATG_CAR_TRANS was analyzed into 1 assay endpoint. This assay endpoint, ATG_CAR_TRANS, was analyzed in the positive analysis fitting direction relative to DMSO as the negative control and baseline of activity. […] Furthermore, this assay endpoint can be referred to as a primary readout, because this assay has produced multiple assay endpoints where this one serves a reporter gene function. […]
Human liver HepG2 cells are transiently transfected with multiple reporter transcription units (MRTUs) in 6-well plates using FuGene 6 reagent (Roche; 3 ml FuGene/1 mg DNA). […] A major difference between the CIS and TRANS system is that in CIS activities of endogenous TFs are measured, whereas the TRANS assay evaluates changes in activities of exogenous, chimeric NR-Gal4 proteins. […]

[6] = target: X-box-binding protein 1 (Homo sapiens) (UniProt P17861); test: ATG_Xbp1_CIS: Attagene CIS-FACTORIAL HepG2 Assay for human X-box Binding Protein 1 (XBP1) (AID 2282972); settings: HepG2 XBP1 cis-element reporter, Attagene multiplex; actives raise or lower the signal
Outline: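 HepG2 cells transiently transfected with multiple cis-element reporter units report endogenous TF activity; 24 h exposure, then reporter mRNA measured by RT-PCR, 6-FAM labelling, HpaI digestion and capillary electrophoresis. Bidirectional fitting versus DMSO.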

[7] = ATG_M_19_TRANS: Attagene TRANS-FACTORIAL HepG2 Assay for M19 Transcription Factor (Internal Marker) (AID 2282974; active = hit-call score of the fitted dose curve at least 0.9, where 1 is the maximum); settings: HepG2 Attagene TRANS-FACTORIAL M19 internal marker reporter
Experimental: ATG_TRANS is a cell-based, multiplexed-readout assay that uses HepG2, a human liver cell line, with measurements taken at 24 hours after chemical dosing in a 24-well plate.ATG_M_19_TRANS is one of 30 assay component(s) measured or calculated from the ATG_TRANS assay. It is designed to make measurements of mRNA induction, a form of inducible reporter, as detected with fluorescence intensity signals by Reverse transcription polymerase chain reaction (RT-PCR) and Capillary electrophoresis technology.Data from the assay component ATG_M_19_TRANS was analyzed into 1 assay endpoint. This assay endpoint, ATG_M_19_TRANS, was analyzed in the positive analysis fitting direction relative to DMSO as the negative control and baseline of activity. Using a type of inducible reporter, measures of mRNA for gain-of-signal activity can be used to understand the background control at the transcription factor-level as they relate to the gene . Furthermore, this assay endpoint can be referred to as a secondary readout, because this assay has produced multiple assay endpoints where this one serves a background control function. To generalize the intended target to other relatable targets, this assay endpoint is annotated to the background measurement intended target family, where the subfamily is internal marker.
Human liver HepG2 cells are transiently transfected with multiple reporter transcription units (MRTUs) in 6-well plates using FuGene 6 reagent (Roche; 3 ml FuGene/1 mg DNA). The MRTU constructs are regulated by a cis-regulating element (promoter). […] A major difference between the CIS and TRANS system is that in CIS activities of endogenous TFs are measured, whereas the TRANS assay evaluates changes in activities of exogenous, chimeric NR-Gal4 proteins. […] The fragments were purified using Qiaquick PCR columns (Qiagen), analyzed on an ABI 3130xL genetic analyzer (Applied Biosystems) with peak positions identified by using a set of X-rhodamine (ROX)-labeled MapMarker1000 molecular weight standards (BioVentures). […]

[8] = target: Androgen receptor (Homo sapiens) (UniProt P10275); test: ATG_AR_TRANS: Attagene TRANS-FACTORIAL HepG2 Assay for human Androgen Receptor (AR) (AID 2282973; active = hit-call score of the fitted dose curve at least 0.9, where 1 is the maximum); settings: HepG2 Attagene TRANS-FACTORIAL AR reporter transcription
Outline: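 HepG2 cells transiently transfected with multiplexed GAL4-UAS reporter units and chimeric NR-Gal4 fusion; 24 h compound exposure. Reporter mRNA measured by RT-PCR, 6-FAM labelling, HpaI digestion and capillary electrophoresis; gain-of-signal fitted relative to DMSO baseline.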

[9] = target: Steroid hormone receptor ERR1 (Homo sapiens) (UniProt P11474); test: ATG_ERRa_TRANS: Attagene TRANS-FACTORIAL HepG2 Assay for human Estrogen-Related Receptor alpha (ERRa) (AID 2282971; active = hit-call score of the fitted dose curve at least 0.9, where 1 is the maximum); settings: HepG2 Attagene TRANS reporter, ERRa transactivation
Outline: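 HepG2 cells transiently transfected with multiplexed GAL4-UAS reporter units reading chimeric ERRa-Gal4 activity; 24 h compound exposure. Reporter mRNA measured by RT-PCR, 6-FAM labelling, HpaI digest and capillary electrophoresis; gain of signal fitted versus DMSO baseline.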

[10] = target: Estrogen receptor (Homo sapiens) (UniProt P03372); test: ATG_ERa_TRANS: Attagene TRANS-FACTORIAL HepG2 Assay for human Estrogen Receptor alpha (ERa) (AID 2282970; active = hit-call score of the fitted dose curve at least 0.9, where 1 is the maximum); settings: HepG2 Attagene TRANS ERa GAL4 reporter, mRNA
Outline: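 HepG2 cells transiently transfected with multiplexed GAL4-UAS reporter units; ERa activity read via exogenous chimeric NR-Gal4 protein. After 24 hour compound exposure, reporter mRNA measured by RT-PCR with 6-FAM labelling and capillary electrophoresis; gain-of-signal fitted relative to DMSO.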

Measured: outcome

ClCCOP(OCCCl)OCCCl
not listed: [8] | [9] | [10]
inactive: all other assays above

CC(C)OP(OC(C)C)OC(C)C
not listed: [9] | [10]
inactive: all other assays above

CCOP(=O)(Cl)Cl
inactive: [1] | [2] | [3] | [4] | [6]

O=[N+]([O-])c1ccccc1[N+](=O)[O-]
not listed: [5] | [8] | [10]
inactive: all other assays above

ClCCNCCCl
not listed: [5] | [7] | [9]
inactive: all other assays above
